Two compounds from BindingDB's records for doi:10.1021/jm960062t (Eli Lilly, 1996) can be followed below.

As a reminder, the Ki is a dissociation constant, usually derived from enzyme kinetics or from competition with a known ligand.

The structures appear in SMILES notation.

This experiment concerns the target 5-hydroxytryptamine receptor 2C (Homo sapiens) (UniProt P28335). Briefly: Binding affinity analysed on 5-HT 2C in human clone using [3H]mesulergine as radioligand.

As for `Cn1ccc2cc3c(cc21)CCN3C(=O)Nc1cccnc1`, affinity was put at a Ki of 10 nM.

Compound `Cc1cc(NC(=O)Nc2ccc3c(ccn3C)c2)sn1` [CAS_3277600] yielded a Ki of 1510 nM.
